Experimental data as given in ChEMBL document CHEMBL1649335, “Discovery of {1-[4-(2-{hexahydropyrrolo[3,4-c]pyrrol-2(1H)-yl}-1H-benzimidazol-1-yl)piperidin-1-yl]cyclooctyl}methanol, systemically potent novel non-peptide agonist of nociceptin/orphanin FQ receptor as analgesic for the treatment of neuropathic pain: design, synthesis, and structure-activity …” (Bioorg Med Chem, 2010).

Protein sequences, listed by entry. Tags and fused reporters are not part of them. Lines headed by an entry give the natural chain unless they say otherwise; changes in a name come on top.
UniProt P41143, whole entry, looked up: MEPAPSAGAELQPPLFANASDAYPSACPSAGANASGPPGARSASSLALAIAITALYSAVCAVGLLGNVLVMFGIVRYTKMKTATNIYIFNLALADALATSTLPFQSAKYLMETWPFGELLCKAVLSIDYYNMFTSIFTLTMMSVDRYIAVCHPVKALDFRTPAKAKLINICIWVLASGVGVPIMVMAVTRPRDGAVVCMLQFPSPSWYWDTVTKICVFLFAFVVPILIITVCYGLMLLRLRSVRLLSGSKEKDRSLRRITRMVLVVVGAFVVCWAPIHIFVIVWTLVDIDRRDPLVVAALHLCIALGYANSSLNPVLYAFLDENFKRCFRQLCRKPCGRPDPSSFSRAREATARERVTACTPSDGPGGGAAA
UniProt P35372, whole entry, looked up: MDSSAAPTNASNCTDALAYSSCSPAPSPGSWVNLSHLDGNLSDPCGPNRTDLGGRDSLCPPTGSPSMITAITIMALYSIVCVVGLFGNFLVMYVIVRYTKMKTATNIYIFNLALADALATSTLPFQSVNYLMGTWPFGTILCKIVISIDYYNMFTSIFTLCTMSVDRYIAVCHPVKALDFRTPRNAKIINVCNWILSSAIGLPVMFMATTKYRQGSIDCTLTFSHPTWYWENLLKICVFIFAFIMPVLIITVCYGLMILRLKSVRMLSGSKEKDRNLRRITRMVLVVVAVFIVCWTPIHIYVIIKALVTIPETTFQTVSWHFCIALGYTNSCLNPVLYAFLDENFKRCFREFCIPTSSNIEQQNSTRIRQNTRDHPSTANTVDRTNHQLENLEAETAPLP
UniProt P41145: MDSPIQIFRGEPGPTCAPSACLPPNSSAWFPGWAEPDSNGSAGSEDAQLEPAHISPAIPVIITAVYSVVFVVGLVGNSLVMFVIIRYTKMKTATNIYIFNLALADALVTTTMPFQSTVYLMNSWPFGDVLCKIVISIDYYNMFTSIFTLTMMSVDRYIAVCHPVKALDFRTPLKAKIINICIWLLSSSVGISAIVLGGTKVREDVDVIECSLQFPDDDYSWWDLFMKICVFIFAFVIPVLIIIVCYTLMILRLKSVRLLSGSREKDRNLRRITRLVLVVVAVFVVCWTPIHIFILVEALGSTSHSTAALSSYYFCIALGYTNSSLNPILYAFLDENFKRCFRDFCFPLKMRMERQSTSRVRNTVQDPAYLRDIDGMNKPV
UniProt P41146: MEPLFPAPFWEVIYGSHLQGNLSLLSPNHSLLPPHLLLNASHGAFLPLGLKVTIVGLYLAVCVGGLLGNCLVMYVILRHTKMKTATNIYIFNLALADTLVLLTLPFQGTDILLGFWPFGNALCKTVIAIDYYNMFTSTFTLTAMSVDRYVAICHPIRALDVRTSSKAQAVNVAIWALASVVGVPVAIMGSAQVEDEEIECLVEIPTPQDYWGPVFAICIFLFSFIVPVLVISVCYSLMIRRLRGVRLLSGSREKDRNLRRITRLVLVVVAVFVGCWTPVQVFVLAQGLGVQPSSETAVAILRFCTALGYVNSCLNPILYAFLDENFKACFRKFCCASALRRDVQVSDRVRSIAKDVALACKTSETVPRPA

Key:
[1] = molecular target: Delta-type opioid receptor (Homo sapiens, UniProt P41143); settings: cho-k1
[2] = molecular target: Mu-type opioid receptor (Homo sapiens, UniProt P35372); settings: cho-k1
[3] = molecular target: Kappa-type opioid receptor (Homo sapiens, UniProt P41145); settings: hek293
[4] = molecular target: Nociceptin receptor (Homo sapiens, UniProt P41146); settings: hek293

Compound | Ki [1] [nM] | Ki [2] [nM] | Ki [3] [nM] | Ki [4] [nM]
OCC1(N2CCC(n3c(N4CC5CN(Cc6ccccc6)CC5C4)nc4ccccc43)CC2)CCCCCCC1 (configuration not stated) | 258 | 128 | 39 | 6.56
COC(=O)C1(N2CCC(n3c(N4CCN(C)CC4)nc4ccccc43)CC2)CCCCCCC1 | 312 | > 450 | > 570 | 80.5
CN1CCN(c2nc3ccccc3n2C2CCN(C3(C(=O)O)CCCCCCC3)CC2)CC1 |  | > 450 | > 570 | 
CC1CN(c2nc3ccccc3n2C2CCN(C3(CO)CCCCCCC3)CC2)CCN1 (configuration not stated) | > 500 | > 450 | 275 | 
OCC1(N2CCC(n3c(-c4ccc(F)c(Cl)c4)nc4ccccc43)CC2)CCCCC1 |  | > 450 |  | 
OCC1(N2CCC(n3c(N4CC5CNCC5C4)nc4ccccc43)CC2)CCCCCCC1 (configuration not stated) | > 5000 | 201 | > 577 | 
CC1(C)CN(c2nc3ccccc3n2C2CCN(C3(CO)CCCCCCC3)CC2)CCN1 | > 500 | > 450 | 387 | 
CN1CCN(c2nc3ccccc3n2C2CCN(C3(CO)CCCCCCC3)CC2)CC1 | 679 | 229 | 333 | 
OCC1(N2CCC(n3c(-c4ccc(F)c(Cl)c4)nc4ccccc43)CC2)CCCCCCC1 |  | 302 |  | 
OCC1(N2CCC(n3c(-c4ccc(Cl)cc4)nc4ccccc43)CC2)CCCCCCC1 | 205 | 178 | > 570 | 
